Values quoted from earlier work in patent US7235583B1, “Fatty acid-anticancer conjugates and uses thereof” (Luitpold Pharmaceuticals, Inc.,, priority 1999, dated 2007).

Conditions: infusion in humans; cited from earlier work

In the case of CC(=O)O[C@H]1C(=O)[C@@]2(C)[C@H]([C@H](OC(=O)c3ccccc3)[C@]3(O)C[C@H](OC(=O)[C@H](O)[C@@H](NC(=O)c4ccccc4)c4ccccc4)C(C)=C1C3(C)C)[C@]1(OC(C)=O)CO[C@@H]1C[C@@H]2O [paclitaxel, reference compound], the “maximum tolerated dose (MTD)” value is given as 225 mg/m^2.
